Yeast mating assay B: variants of the scFv Ab-14

Data: MIT Lincoln Laboratory AlphaSeq set, Li et al. 2023, doi:10.1038/s41467-023-39022-2, as distributed in FLAb.

All variants were tested on one target, the spike HR2 peptide PDVDLGDISGINAS (SARS-CoV-2).

Parent: Ab-14, a human scFv built as VH, a 15-residue (Gly4Ser)3 linker, VL. Only the CDRs of the light chain vary.
VH: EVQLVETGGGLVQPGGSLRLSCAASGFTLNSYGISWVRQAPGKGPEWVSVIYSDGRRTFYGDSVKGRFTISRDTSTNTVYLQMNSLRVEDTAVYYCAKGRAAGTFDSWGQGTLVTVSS
VL: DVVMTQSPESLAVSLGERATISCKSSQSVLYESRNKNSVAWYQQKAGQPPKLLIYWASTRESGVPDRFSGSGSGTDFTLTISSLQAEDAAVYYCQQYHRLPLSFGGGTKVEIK

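Phage display of a naive human antibody library on the peptide gave the parent. These sequences belong to a second round, designed from the earlier measurements on random variants of the parent. Their group label is 14L_GP_Gibbs (GP: Gaussian process model; Gibbs: Gibbs sampling; a sequence that several methods proposed may carry one label only). Affinity was read by AlphaSeq, a pooled yeast mating assay with surface-displayed partners. Mating (16 h, 30 °C) was followed by selection of diploids and sequencing of their barcodes. Each replicate has its own calibration line, from reference interactions of the BCL2 family. Each pool was mated in six replicate cultures.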

The parent's light chain CDRs are KSSQSVLYESRNKNSVA, WASTRES, QQYHRLPLS; each variant's own CDRs replace them letter for letter.
Values are log10 of the apparent Kd in nM; lower means stronger binding.
"n.d." means that the variant was in the library but no mating with the target was seen in that replicate; the authors take this as a sign of poor binding, and no number exists.
Of ten entries with the parent sequence, four were seen in most replicates (averages 0.34 to 2.37), three in one and three in none, so single entries are noisy.
Empty control strains, which show no peptide, gave a signal in 4% of pairings with all light chain designs; the median was 2.64 and 95% of these signals were weaker than 1.59. No background was subtracted. For each scFv, signals with the empty controls are counted beside the result, with their mean in brackets.
The range of this assay differs from that of the first round, and the authors advise against merging the two.
The authors averaged sequences with at least three values out of six and counted those with two or fewer as poor binders.

CDR-L1 | CDR-L2 | CDR-L3 | log10 Kd (nM) by replicate | control signals
KSSQSVMGEDWNKNSVA | HASVRES | QQYHRLPLM | 0.34 / 0.88 / 0.28 / 0.53 / 0.60 / 0.55 | 2 of 18 (3.15)
KLQQSELMESRNMNSVA | HASTRES | QDYHRLPLS | 0.17 / -0.09 / -0.14 / -0.27 / -0.11 / 0.02 | 2 of 18 (3.03)
KLQWLWLYESRNKNSVA | NASTRYS | QQYHRLPLS | 1.10 / 1.03 / 0.78 / 0.53 / 1.00 / 1.52 | 0 of 18
KVSQSNLGESRMKQSVA | HASQRES | QQYHRLPLS | 1.22 / 0.87 / 0.79 / 0.46 / 0.33 / 1.03 | 1 of 18 (1.16)
KLSQSWGGEWRNFNSVA | HASTREQ | QDYHRLPLS | 0.42 / 0.02 / 0.00 / -0.10 / -0.27 / -0.01 | 0 of 18
KLPQWDLYEGRNKNSVA | SASTRSD | QQYHRLPLS | -0.05 / -0.49 / -0.33 / -0.67 / -0.34 / 0.07 | 0 of 18
KFSQLQLYESRNKNSVA | NASTRES | QQYRRLPLS | -0.52 / -0.64 / -0.24 / -0.33 / -0.53 / -0.30 | 2 of 18 (2.02)
KMQQLWWYEQRNKNSVA | DGSTRES | QQYHRLPLS | -0.11 / -0.47 / -0.31 / -0.57 / -0.52 / -0.24 | 0 of 18
KVSQSVLQGDRNKSSVA | EASTREM | QQYHRLPLS | 1.81 / 1.80 / 1.19 / 1.88 / 1.59 / 1.50 | 1 of 18 (1.69)
KSEGGELYESRNKNSVA | NASMRES | QQYHRLPLS | -0.02 / -0.19 / -0.26 / -0.30 / -0.16 / -0.21 | 0 of 18
KLFQSELYESRHANNVA | NASQRES | QQYHRLPLS | -0.14 / -0.19 / -0.28 / -0.44 / -0.10 / 0.03 | 1 of 18 (4.09)
KLQMLELQESRWCNSVA | QASTREE | QQYHRLPLS | 2.24 / 1.31 / 1.09 / 0.57 / 1.14 / 0.84 | 2 of 18 (3.27)
KDMQSWLYWSRNKNSVA | NASQREH | QQYHRLPLS | 0.92 / 1.11 / 0.83 / 1.14 / 0.44 / 1.22 | 2 of 18 (2.70)
KLDISELYESRNWNSVA | NASTREE | QQYHRLPLS | 0.70 / 0.67 / 0.62 / 0.78 / 0.86 / 0.95 | 2 of 18 (3.03)
KVSPSVLYEDRNWNSVA | QASQRNS | QQYHRLPLS | -0.52 / -0.55 / -0.76 / -0.78 / -0.67 / -0.30 | 0 of 18
KVSLSVELESRLKNSVA | HASTREE | QQYHRLPLS | 0.09 / -0.02 / -0.05 / 0.06 / -0.13 / -0.08 | 0 of 18
KVSQSKLGESRNMNSVA | NASTRED | QQYHRLPLS | 0.45 / 0.07 / 0.23 / 0.12 / 0.09 / 0.34 | 0 of 18
KLPQSMLYESRNKNSVA | QASTRES | QQYHRLPLT | -0.04 / -0.26 / -0.13 / -0.42 / 0.11 / 0.07 | 1 of 18 (2.15)
KLSPSWWYESRNKANVA | HASTRES | QQYHRLPLH | 1.39 / 0.73 / 1.24 / 0.90 / 1.03 / 0.91 | 0 of 18
KLSESVLYESRWKNSVA | DASTREE | QQYHRLPLS | -0.09 / -0.33 / -0.27 / -0.41 / -0.31 / -0.06 | 1 of 18 (3.15)
KFSQSDPYEDRNKNSVA | NASTRSS | QQYHRLPLS | -0.12 / -0.08 / -0.19 / -0.34 / -0.31 / -0.09 | 2 of 18 (2.87)
KLSQSNLYEWRNDNSVA | NASQRMS | QQYHRLPLS | 0.28 / 0.22 / -0.02 / 0.18 / 0.09 / 0.54 | 0 of 18
KLMQEQEYQSRNKNSVA | HASERES | QQYHRLPLS | 0.29 / 0.47 / 0.46 / 0.89 / 0.64 / 0.47 | 0 of 18
KVQPSELYESRHDNSVA | NASKRES | QQYHRLPLS | 2.19 / 1.62 / 1.72 / 1.20 / 1.83 / 2.61 | 2 of 18 (3.27)
KLSNSKWYESRMKNQVA | EASTREM | QQYHRLPLS | 0.65 / 0.32 / 0.08 / 0.46 / 0.12 / 0.50 | 1 of 18 (4.55)
KLSQQMLYESRNKNNVA | AASQRED | QQYHRLPLS | -0.20 / -0.44 / -0.32 / -0.63 / -0.67 / -0.41 | 1 of 18 (2.33)
KLQYLVLYESRMKNSVA | GASTRLQ | QQYHRLPLS | n.d. / n.d. / n.d. / n.d. / n.d. / n.d. | 0 of 18
KLQSLELYESRNKNNVA | SASTRYS | QQYHRLPLS | 1.26 / 1.13 / 0.21 / 0.83 / 0.12 / 0.64 | 1 of 18 (2.02)
KLQNSMLYESRNKNSVA | DASKRES | QAYHRLPLS | 0.41 / 0.32 / 0.20 / 0.28 / -0.16 / 0.24 | 0 of 18
KLEQSVMLESRNVNSVA | SASQREL | QQYHRLPLS | 0.14 / 0.23 / 0.15 / -0.12 / 0.21 / 0.14 | 0 of 18
KLQMSAEYQSRNKNSVA | SASQRES | QQYHRLPLS | 0.22 / -0.04 / 0.03 / -0.16 / -0.12 / 0.10 | 0 of 18
FLSQSWDYESRPKNSVA | NASTRMS | QQYHRLPLS | 0.07 / -0.17 / -0.17 / -0.21 / -0.28 / -0.07 | 4 of 18 (2.99)

Repeated from above, the 4 best binders with a signal in all replicates:

CDR-L1 | CDR-L2 | CDR-L3 | log10 Kd (nM) by replicate | control signals
KVSPSVLYEDRNWNSVA | QASQRNS | QQYHRLPLS | -0.52 / -0.55 / -0.76 / -0.78 / -0.67 / -0.30 | 0 of 18
KLSQQMLYESRNKNNVA | AASQRED | QQYHRLPLS | -0.20 / -0.44 / -0.32 / -0.63 / -0.67 / -0.41 | 1 of 18 (2.33)
KFSQLQLYESRNKNSVA | NASTRES | QQYRRLPLS | -0.52 / -0.64 / -0.24 / -0.33 / -0.53 / -0.30 | 2 of 18 (2.02)
KMQQLWWYEQRNKNSVA | DGSTRES | QQYHRLPLS | -0.11 / -0.47 / -0.31 / -0.57 / -0.52 / -0.24 | 0 of 18